The text below walks through data of ChEMBL document CHEMBL1125665, “Quaternary salts of 2-[(hydroxyimino)methyl]imidazole. 5. Structure-activity relationships for side-chain nitro-, sulfone-, amino-, and aminosulfonyl-substituted analogues for therapy against anticholinesterase intoxication” (1991).

Experiment [1] addresses T1, Acetylcholinesterase (Mus musculus) (UniProt P21836).
T1 sequence (whole entry): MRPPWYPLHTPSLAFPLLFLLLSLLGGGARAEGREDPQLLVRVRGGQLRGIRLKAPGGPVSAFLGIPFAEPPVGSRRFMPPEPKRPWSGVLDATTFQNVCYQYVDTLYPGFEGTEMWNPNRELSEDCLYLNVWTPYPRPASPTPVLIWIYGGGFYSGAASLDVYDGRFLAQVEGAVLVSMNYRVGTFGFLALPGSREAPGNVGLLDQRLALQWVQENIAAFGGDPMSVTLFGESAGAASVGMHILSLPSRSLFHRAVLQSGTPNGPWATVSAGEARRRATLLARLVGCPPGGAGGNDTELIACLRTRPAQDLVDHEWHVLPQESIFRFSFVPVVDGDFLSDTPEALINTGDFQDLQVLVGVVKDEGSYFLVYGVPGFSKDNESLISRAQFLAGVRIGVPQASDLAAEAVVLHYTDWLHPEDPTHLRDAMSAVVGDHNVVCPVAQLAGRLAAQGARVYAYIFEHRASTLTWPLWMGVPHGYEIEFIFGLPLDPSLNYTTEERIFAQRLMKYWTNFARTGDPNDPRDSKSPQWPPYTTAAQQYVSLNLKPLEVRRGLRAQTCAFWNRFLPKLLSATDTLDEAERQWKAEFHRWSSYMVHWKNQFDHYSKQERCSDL
The experiment is described as follows: Antidotal activity measured in mice exposed to soman; activity expressed as the no. of survivors at 24 hr out of population of 10 mice exposed intramuscularly at a dose 1/16 of 2LD50 of the compound.

Experiment [2] addresses T1, Acetylcholinesterase (Mus musculus). Briefly: antidotal activity measured in mice exposed to soman; activity expressed as the no. of survivors at 24 hr out of population of 10 mice exposed intramuscularly at the dose 1/4 of 2LD50 of the compound.
For experiment [3] the target is unchanged. The experiment is described as follows: Antidotal activity measured in mice exposed to tabun; activity expressed as the no. of survivors at 24 hr out of population of 10 mice each exposed intramuscularly at the dose 1/16 of 2LD50 of the compound.

In the case of `CC(Cn1cc[n+](C)c1/C=N/O)[N+](=O)[O-]` (stereo not drawn), the figures for the No. of survivors in experiment [1] and in experiment [2] were 0 and 4, respectively.

For the compound `C[n+]1ccn(COC(C)(C)C[N+](=O)[O-])c1/C=N/O`, the No. of survivors in experiment [1] came to 5; in experiment [3], 0; in experiment [2], 8.

With `C[n+]1ccn(CCCNS(=O)(=O)c2ccccc2)c1/C=N/O`, the results for the No. of survivors in experiment [1] and in experiment [2] were 0 and 4, respectively.

Turning to `CC(CS(C)(=O)=O)OCn1cc[n+](C)c1/C=N/O` (stereo not drawn), the No. of survivors in experiment [1] is 8; in experiment [3], 8; in experiment [2], 5.

Turning to `CC[N+](C)(CC)CCn1cc[n+](C)c1/C=N/O`, the No. of survivors in experiment [1] and in experiment [2] was 0 throughout.

Consider `CCN(CC)CCCn1cc[n+](C)c1/C=N/O`, for which the No. of survivors in experiment [1] stood at 0.

Regarding `C[n+]1ccn(COCCC[N+](=O)[O-])c1/C=N/O`, the No. of survivors in experiment [1] was found to be 7; in experiment [2] it was 10.

Regarding `CN(CCn1cc[n+](C)c1/C=N/O)S(=O)(=O)C(F)(F)F`, the figures for the No. of survivors in experiment [1] and in experiment [2] were 8 and 6, respectively.

With `CC[n+]1ccn(COC(C)(C)C(C)[N+](=O)[O-])c1/C=N/O` (stereo not drawn), the No. of survivors in experiment [1] was 8; in experiment [2] it was 10.

Consider `CC(OCn1cc[n+](C)c1/C=N/O)C(C)[N+](=O)[O-]` (stereo not drawn), for which the No. of survivors in experiment [1] and in experiment [2] was 9 each time.

On to `CC[n+]1ccn(COC(C)C(C)S(C)(=O)=O)c1/C=N/O` (stereo not drawn), for which the results for the No. of survivors in experiment [1], in experiment [3] and in experiment [2] were 2, 0 and 10, respectively.

Regarding `C[n+]1ccn(CCC[n+]2ccc(C(N)=O)cc2)c1/C=N/O`, the values for the No. of survivors in experiment [1] and in experiment [2] were 7 and 10, respectively.

Consider `CCN(CCCn1cc[n+](C)c1/C=N/O)S(C)(=O)=O`, for which the No. of survivors in experiment [1] was found to be 1; in experiment [2], 5.

With `CCC(Cn1cc[n+](C)c1/C=N/O)N(C)C` (stereo not drawn), the No. of survivors in experiment [1], in experiment [3] and in experiment [2] was 0 throughout.

Take `CN(CCCn1cc[n+](C)c1/C=N/O)S(=O)(=O)C(F)(F)F`: the No. of survivors was 10 in experiment [1], 3 in experiment [3] and 8 in experiment [2].

`CCS(=O)(=O)CC(C)OCn1cc[n+](C)c1/C=N/O` (stereo not drawn): the No. of survivors in experiment [1] was 3; in experiment [3] it was 1; in experiment [2] it was 8.

With `C[n+]1ccn(COC2CCCC[C@H]2S(C)(=O)=O)c1/C=N/O` (stereo partly drawn), the values for the No. of survivors in experiment [1], in experiment [3] and in experiment [2] were 0, 0 and 1, respectively.

With `CCS(=O)(=O)CCn1cc[n+](C)c1/C=N/O`, the No. of survivors was 6 in experiment [1], 1 in experiment [3] and 5 in experiment [2].

As for `C[n+]1ccn(CCCNS(=O)(=O)C(F)(F)F)c1/C=N/O`, the No. of survivors in experiment [1], in experiment [3] and in experiment [2] was 0 in each case.

For the compound `CCC[n+]1ccn(CCN(C)C)c1/C=N/O`, the No. of survivors in experiment [1] and in experiment [2] was 0 each time.

Take `CN(CCOCn1cc[n+](C)c1/C=N/O)S(=O)(=O)C(F)(F)F`: the No. of survivors in experiment [1] was 6; in experiment [2] it was 5.

As to `CCC(Cn1cc[n+](C)c1/C=N/O)NS(=O)(=O)C(F)(F)F` (stereo not drawn), the No. of survivors in experiment [1] was 0; in experiment [2] it was 5.

Take `CN(CCOCCn1cc[n+](C)c1/C=N/O)S(=O)(=O)C(F)(F)F`: the No. of survivors turned out to be 0 in experiment [1], 0 in experiment [3] and 1 in experiment [2].

For the compound `CC[n+]1ccn(CCN(C)S(=O)(=O)C(F)(F)F)c1/C=N/O`, the results for the No. of survivors in experiment [1], in experiment [3] and in experiment [2] were 5, 2 and 7, respectively.

On to `CN(CCn1cc[n+](C)c1/C=N/O)S(=O)(=O)c1ccccc1`, for which the results for the No. of survivors in experiment [1], in experiment [3] and in experiment [2] were 10, 3 and 8, respectively.

In the case of `CC[n+]1ccn(CCN(C)C)c1/C=N/O`, the No. of survivors in experiment [1] was 0; in experiment [2], 1.

In the case of `CC[n+]1ccn(CCCS(C)(=O)=O)c1/C=N/O`, the No. of survivors turned out to be 4 in experiment [1] and 10 in experiment [2].

Take `C[n+]1ccn(COCCCCS(C)(=O)=O)c1/C=N/O`: the values for the No. of survivors in experiment [1], in experiment [3] and in experiment [2] were 2, 0 and 6, respectively.

Consider `CCCN(CCn1cc[n+](C)c1/C=N/O)S(=O)(=O)c1ccccc1`, for which the figures for the No. of survivors in experiment [1], in experiment [3] and in experiment [2] were 9, 8 and 2, respectively.

As for `CCN(CCn1cc[n+](C)c1/C=N/O)S(=O)(=O)c1ccccc1`, the No. of survivors in experiment [1] was determined as 7; in experiment [2] it was 1.

With `C[n+]1ccn(CCOCCS(C)(=O)=O)c1/C=N/O`, the results for the No. of survivors in experiment [1] and in experiment [2] were 0 and 6, respectively.

`CN(CCn1cc[n+](C)c1/C=N/O)S(C)(=O)=O`: the No. of survivors amounted to 10 in experiment [1], 7 in experiment [3] and 8 in experiment [2].

As to `CN(C)CCCn1cc[n+](C)c1/C=N/O`, the No. of survivors in experiment [1] turned out to be 0; in experiment [2], 8.

Take `CC(COCn1cc[n+](C)c1/C=N/O)[N+](=O)[O-]` (stereo not drawn): the No. of survivors in experiment [1] was determined as 0; in experiment [2] it was 6.

For `C[n+]1ccn(CC[N+](C)(C)C)c1/C=N/O`, the No. of survivors was found to be 0 in experiment [1] and 2 in experiment [2].

As to `CCCN(CCn1cc[n+](C)c1/C=N/O)S(=O)(=O)C(F)(F)F`, the figures for the No. of survivors in experiment [1], in experiment [3] and in experiment [2] were 5, 8 and 6, respectively.

Regarding `C[n+]1ccn(CCC[n+]2cccc(C(=O)c3ccccc3)c2)c1/C=N/O`, the No. of survivors in experiment [1] is 3; in experiment [3], 7; in experiment [2] it was 9.

Consider `CN(CCCn1cc[n+](C)c1/C=N/O)S(=O)(=O)c1ccccc1`, for which the No. of survivors in experiment [1] is 0; in experiment [2] it was 2.

For the compound `CC[n+]1ccn(COCCS(=O)(=O)CC)c1/C=N/O`, the No. of survivors amounted to 4 in experiment [1] and 9 in experiment [2].

For `CC(CCn1cc[n+](C)c1/C=N/O)C(C)(C)[N+](=O)[O-]` (stereo not drawn), the No. of survivors in experiment [1] amounted to 3; in experiment [2], 8.

For `CC(Cn1cc[n+](C)c1/C=N/O)NS(=O)(=O)C(F)(F)F` (stereo not drawn), the No. of survivors in experiment [1] and in experiment [2] was 5 in each case.

As to `C#CCCOCn1ccnc1/C=N/O`, the No. of survivors in experiment [1] was 0; in experiment [2], 1.

Consider `CN(CCCn1cc[n+](C)c1/C=N/O)S(C)(=O)=O`, for which the No. of survivors was determined as 9 in experiment [1] and 8 in experiment [2].

As to `CC[n+]1ccn(COCCS(C)(=O)=O)c1/C=N/O`, the No. of survivors was 2 in experiment [1] and 9 in experiment [2].

For the compound `CC[n+]1ccn(CCCC(C)(C)[N+](=O)[O-])c1/C=N/O`, the No. of survivors worked out at 7 in experiment [1] and 6 in experiment [2].

`C[n+]1ccn(CCCC(C)(C)[N+](=O)[O-])c1/C=N/O`: the No. of survivors in experiment [1] was found to be 1; in experiment [2], 9.

Consider `CC[n+]1ccn(COC(C)(C)C[N+](=O)[O-])c1/C=N/O`, for which the No. of survivors in experiment [1] is 0; in experiment [2] it was 4.

In the case of `CC(C[N+](=O)[O-])OCn1cc[n+](C)c1/C=N/O` (stereo not drawn), the values for the No. of survivors in experiment [1] and in experiment [2] were 2 and 9, respectively.

Take `CCN(CCn1cc[n+](C)c1/C=N/O)S(C)(=O)=O`: the values for the No. of survivors in experiment [1] and in experiment [2] were 9 and 7, respectively.

Take `CC[n+]1ccn(COCC(C)(C)[N+](=O)[O-])c1/C=N/O`: the No. of survivors was determined as 6 in experiment [1] and 8 in experiment [2].

For the compound `CC([N+](=O)[O-])C(C)(C)OCn1cc[n+](C)c1/C=N/O` (stereo not drawn), the No. of survivors in experiment [1] is 10; in experiment [2], 9.

As for `CC(OCn1cc[n+](C)c1C(N)=O)C(C)(C)[N+](=O)[O-]` (stereo not drawn), the No. of survivors in experiment [1] came out at 4; in experiment [2] it was 9.

Turning to `CCC[n+]1ccn(COCCS(C)(=O)=O)c1/C=N/O`, the No. of survivors is 0 in experiment [1] and 9 in experiment [2].

In the case of `CC[n+]1ccn(COC(C)C(C)[N+](=O)[O-])c1/C=N/O` (stereo not drawn), the No. of survivors in experiment [1] amounted to 1; in experiment [2], 8.

Consider `CN(C)CCn1cc[n+](C)c1/C=N/O`, for which the No. of survivors in experiment [1] is 0; in experiment [2] it was 10.

As for `C[n+]1ccn(CCN2CCOCC2)c1/C=N/O`, the No. of survivors in experiment [1] amounted to 0; in experiment [2], 3.
